Values quoted from earlier work as cited in US9849143B2, “Broad spectrum antiviral and methods of use” (The Burlington HC Research Group, Inc., priority 2006, dated 2017).
Like-named read-outs stand apart in the source and are kept apart here.

Key:
[1] = rhesus macaques, cited from earlier work
[2] = mice, cited from earlier work

CNCCCNCCSP(=O)(O)O
Concentration (plasma) ([1]; 1 h after duodenal administration of 150 mg/kg BW of parent drug): 11750 ng/mL
Concentration (plasma) ([1]; 2 h after duodenal administration of 150 mg/kg BW of parent drug): 17080 ng/mL
Concentration (plasma) ([1]; 6 h after duodenal administration of 150 mg/kg BW of parent drug): 15500 ng/mL
maximally tolerated dose (MTD) ([2]; administered i.p.): 893 mg/kg BW
maximally tolerated dose (MTD) ([2]; administered p.o.): 1488 mg/kg BW
